US6632977B2 (priority 1996, dated 2003)

System: μ receptor
Experiment: Saturation binding of [3H]DAGO to whole brain membrane proteins (Scatchard)

D-Ala^2MePhe^4Gly-ol^5 enkephalin
Kd ([3H]DAGO, μ receptor gene line, heterozygous +/−): 1.13 nM
Kd ([3H]DAGO, μ receptor gene line, homozygous −/−): und
Kd ([3H]DAGO, μ receptor gene line, wild +/+): 1.34 nM
Kd (read-out: DAGO Kd, kappa receptor gene line, heterozygous +/−): 1.36 nM
Kd (read-out: DAGO Kd, kappa receptor gene line, homozygous −/−): 1.39 nM
Kd (read-out: DAGO Kd, kappa receptor gene line, wild +/+): 1.26 nM

Like-named read-outs stand apart in the source and are kept apart here.
